In patent US20220175820A1, “DEXTRAN SULFATE FOR INFLAMMATORY DERMATOSES” (PIERRE FABRE DERMO-COSMETIQUE, priority 2019, published 2022):

Tests used:
[1] = system: FLG: filaggrin; test: RT-qPCR gene expression in normal human keratinocytes: FLG; assay type: cell-based; details: dextran sulfate from Welding GMBH & Co, 4000-8000 Da, 2 mg/ml, 48 h
Method: (§1) The effects of this compound were assessed via the RT-qPCR technique with the analysis of 12 target genes chosen for their importance in keratinocyte differentiation, antimicrobial defence and hydration. Calcium chloride (tested at 1.5 mM) is used as the reference compound (physiological agent inducing terminal epidermal differentiation). The cells are then collected for analysis of target expression (mRNA) by real-time PCR. Total RNAs were extracted with TriPure Isolation Reagent® according to the supplier's instructions (Roche Life Science, Meylan, France). They were assayed with the Bioanalyser 2100 (Agilent Technologies, Les Ulis, France). The mRNAs were reverse transcribed into complementary DNA with oligo(dT) and Transcriptor Reverse Transcriptase. PCR was performed in the LightCycler® System according to the supplier's instructions (Roche). The PCR mix used is SYBR green I. The results were analyzed with Microsoft Excel®. The relative quantity is calculated for each gene by normalizing with two reference genes, ribosomal protein L13A (RPL13A) and TATA box binding protein (TBP).

[2] = system: KLK7: type 7 kallikrein; test: RT-qPCR gene expression in normal human keratinocytes: KLK7; assay type: cell-based; details: dextran sulfate from Welding GMBH & Co, 4000-8000 Da, 2 mg/ml, 48 h
Method: as §1

[3] = system: FABP5: epidermal fatty acid binding protein; test: RT-qPCR gene expression in normal human keratinocytes: FABP5; assay type: cell-based; details: dextran sulfate from Welding GMBH & Co, 4000-8000 Da, 2 mg/ml, 48 h
Method: as §1

[4] = system: CDSN : corneodesmosin; test: RT-qPCR gene expression in normal human keratinocytes: CDSN; assay type: cell-based; details: dextran sulfate from Welding GMBH & Co, 4000-8000 Da, 2 mg/ml, 48 h
Method: as §1

[5] = system: CASP14: caspase 14; test: RT-qPCR gene expression in normal human keratinocytes: CASP14; assay type: cell-based; details: dextran sulfate from Welding GMBH & Co, 4000-8000 Da, 2 mg/ml, 48 h
Method: as §1

[6] = system: SULT2B1: cholesterol sulfotransferase; test: RT-qPCR gene expression in normal human keratinocytes: SULT2B1; assay type: cell-based; details: dextran sulfate from Welding GMBH & Co, 4000-8000 Da, 2 mg/ml, 48 h
Method: as §1

[7] = system: DEGS2: sphingolipid C4-hydroxylase/delta-4 desaturase; test: RT-qPCR gene expression in normal human keratinocytes: DEGS2; assay type: cell-based; details: dextran sulfate from Welding GMBH & Co, 4000-8000 Da, 2 mg/ml, 48 h
Method: as §1

[8] = system: DEFB4A: β-defensin 2; test: RT-qPCR gene expression in normal human keratinocytes: DEFB4A; assay type: cell-based; details: dextran sulfate from Welding GMBH & Co, 4000-8000 Da, 2 mg/ml, 48 h
Method: as §1

[9] = system: CLDN4: claudin 4; test: RT-qPCR gene expression in normal human keratinocytes: CLDN4; assay type: cell-based; details: dextran sulfate from Welding GMBH & Co, 4000-8000 Da, 2 mg/ml, 48 h
Method: as §1

[10] = system: TGM1: transglutaminase 1; test: RT-qPCR gene expression in normal human keratinocytes: TGM1; assay type: cell-based; details: dextran sulfate from Welding GMBH & Co, 4000-8000 Da, 2 mg/ml, 48 h
Method: as §1

[11] = in water and saline solutions; cited from earlier work

## Sodium dextran sulphate [Dextran sulfate]
[1]
  FLG Mean RQ (relative quantity): 81.2
[2]
  KLK7 Mean RQ (relative quantity): 96.0
[3]
  FABP5 Mean RQ (relative quantity): 25.4
[4]
  CDSN Mean RQ (relative quantity): 8.0
[5]
  CASP14 Mean RQ (relative quantity): 23.8
[6]
  SULT2B1 Mean RQ (relative quantity): 41.4
[7]
  DEGS2 Mean RQ (relative quantity): 63.8
[8]
  DEFB4A Mean RQ (relative quantity): 41.8
[9]
  CLDN4 Mean RQ (relative quantity): 9.2
[10]
  TGM1 Mean RQ (relative quantity): 27.0
[11]
  solubility: good solubility
